Assay [1] concerns the target Beta Secretase enzyme (BACE) (Homo sapiens (Human), UniProt P56817). Nature of the assay: In vitro enzymatic BACE FRET assay. Type of assay: biochemical. Conditions: read-out: BACE 1 FRET assay IC50. In outline: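 A quenched fluorophore-peptide spanning the BACE cleavage site served as substrate at 50 nM, with one-hour incubation in pH 4.2 acetate buffer containing 100 uM genapol and 10% DMSO final. Fluorescence was measured after quenching with Tris to neutral pH.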

By UniProt entry, the sequences of proteins in these tests, tags left out. Residues count along the entry.
UniProt P56817, 46-501: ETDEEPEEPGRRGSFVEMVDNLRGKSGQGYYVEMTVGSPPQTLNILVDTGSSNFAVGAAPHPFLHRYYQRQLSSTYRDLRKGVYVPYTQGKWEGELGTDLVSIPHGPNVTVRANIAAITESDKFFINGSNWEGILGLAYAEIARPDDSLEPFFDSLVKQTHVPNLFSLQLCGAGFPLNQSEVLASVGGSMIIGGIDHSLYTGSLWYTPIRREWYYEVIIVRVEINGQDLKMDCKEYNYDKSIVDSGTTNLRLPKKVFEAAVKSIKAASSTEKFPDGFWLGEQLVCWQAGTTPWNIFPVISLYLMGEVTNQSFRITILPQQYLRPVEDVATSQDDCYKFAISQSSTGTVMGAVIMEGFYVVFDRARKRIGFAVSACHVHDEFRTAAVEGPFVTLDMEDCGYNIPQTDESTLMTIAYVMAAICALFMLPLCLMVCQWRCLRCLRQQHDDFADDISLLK

Assay [2] concerns Aβ40 in conditioned medium of cells stably expressing Amyloid Precursor Protein (APP). Nature of the assay: In vitro BACE cell-based assay (Aβ40 sandwich ELISA). Conditions: Homo sapiens, read-out: HEK cell assay IC50. Summed up:
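Aβ40 in supernatants was measured by time-resolved fluorescence sandwich ELISA using pAb40 capture and biotinylated 6E10 detection, with antibody incubations at 4 °C. Stable APP cells were exposed to compounds for 24 h in a 10-point series (top dose 100 or 10 µM, 0.1% DMSO). IC50 was fitted from the concentration-response.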
For orientation: ELISA stands for enzyme-linked immunosorbent assay.

The mark [3] stands for this setting: HEK293, average IC50, HEK cells.
The mark [4] stands for this setting: average IC50, BACE enzyme assay.
Where [5] appears, read: HEK293, average IC50, HEK cell assay.

Where two headings read alike, the source gives them in different places.

As usually defined, the IC50 is the concentration at which inhibition is half-maximal. With `N#Cc1cncc(-c2ccc(F)c([C@]3(CF)C[C@@H](C(F)(F)F)OC(N)=N3)c2)c1` [Example 103, 5-(3-((4S,6S)-2-amino-4-(fluoromethyl)-6-(trifluoromethyl)-5,6-dihydro-4H-1,3-oxazin-4-yl)-4-fluorophenyl)nicotinonitrile], the IC50 in assay [1] (average IC50) turned out to be 3420 nM; in assay [2] (setting [3]), 3850 nM.

With `NC1=N[C@](CF)(c2cc(NC(=O)c3ncc(Cl)cc3F)cc(F)c2F)C[C@@H](C(F)(F)F)O1` [Example 233, N-(3-((4S,6S)-2-amino-4-(fluoromethyl)-6-(trifluoromethyl)-5,6-dihydro-4H-1,3-oxazin-4-yl)-4,5-difluorophenyl)-5-chloro-3-fluoropicolinamide], the IC50 turned out to be 29 nM in assay [1] (average) and 78 nM in assay [2] (HEK293, HEK cells, average).

As for `COc1cnc2c(Nc3ccc(F)c([C@]4(CF)C[C@@H](C(F)(F)F)OC(N)=N4)c3)ncnc2c1` [Example 13, (4S,6S)-4-(2-fluoro-5-((7-methoxypyrido[3,2-d]pyrimidin-4-yl)amino)phenyl)-4-(fluoromethyl)-6-(trifluoromethyl)-5,6-dihydro-4H-1,3-oxazin-2-amine], the results for the IC50 in assay [1] (average IC50) and in assay [2] (setting [3]) were 72.2 nM and 95.9 nM, respectively.

Turning to `Cc1cc(OCC(F)(F)F)cnc1C(=O)Nc1cc(F)c(F)c([C@]2(C)C[C@@H](C(F)(F)F)OC(N)=N2)c1` [Example 194, N-(3-((4S,6S)-2-amino-4-methyl-6-(trifluoromethyl)-5,6-dihydro-4H-1,3-oxazin-4-yl)-4,5-difluorophenyl)-3-methyl-5-(2,2,2-trifluoroethoxy)picolinamide], the IC50 in assay [1] (average) amounted to 156 nM; in assay [2] (HEK293, HEK cells, average), 213 nM.

As to `NC1=N[C@](CF)(c2cc(NC(=O)c3ccc(Br)cn3)cc(F)c2F)C[C@@H](C(F)(F)F)O1` [Example 157, N-(3-((4S,6S)-2-amino-4-(fluoromethyl)-6-(trifluoromethyl)-5,6-dihydro-4H-1,3-oxazin-4-yl)-4,5-difluorophenyl)-5-bromopicolinamide], the IC50 amounted to 19 nM in assay [1] (setting [4]) and 81 nM in assay [2] (setting [5]).

Turning to `NC1=N[C@](CF)(c2cc(NC(=O)c3cnc(OCc4ncco4)cn3)ccc2F)C[C@@H](C(F)(F)F)O1` [Example 46, N-(3-((4S,6S)-2-amino-4-(fluoromethyl)-6-(trifluoromethyl)-5,6-dihydro-4H-1,3-oxazin-4-yl)-4-fluorophenyl)-5-(oxazol-2-ylmethoxy)pyrazine-2-carboxamide], the concentration for half-maximal inhibition (IC50) in assay [1] (setting [4]) was 11 nM; in assay [2] (setting [5]) it was 19 nM.

On to `NC1=N[C@](CF)(c2cc(NC(=O)c3ncc(Cl)cc3Cl)ccc2F)C[C@@H](C(F)(F)F)O1` [Example 58, N-(3-((4S,6S)-2-amino-4-(fluoromethyl)-6-(trifluoromethyl)-5,6-dihydro-4H-1,3-oxazin-4-yl)-4-fluorophenyl)-3,5-dichloropicolinamide], for which the IC50 in assay [1] (average IC50) turned out to be 23 nM; in assay [2] (setting [3]) it was 65.2 nM.

Consider `C[C@@]1(c2cc(NC(=O)c3ccc(C(F)F)cn3)cc(F)c2F)C[C@@H](C(F)(F)F)OC(N)=N1` [Example 200, N-(3-((4S,6S)-2-amino-4-methyl-6-(trifluoromethyl)-5,6-dihydro-4H-1,3-oxazin-4-yl)-4,5-difluorophenyl)-5-(difluoromethyl)picolinamide], for which the IC50 in assay [1] (average) is 40 nM; in assay [2] (HEK293, HEK cells, average), 14 nM.

In the case of `C#CCOc1cnc(C(=O)Nc2ccc(F)c([C@]3(CF)C[C@@H](C(F)(F)F)OC(N)=N3)c2)cn1` [Example 35, N-(3-((4S,6S)-2-amino-4-(fluoromethyl)-6-(trifluoromethyl)-5,6-dihydro-4H-1,3-oxazin-4-yl)-4-fluorophenyl)-5-(prop-2-yn-1-yloxy)pyrazine-2-carboxamide], the IC50 in assay [1] (setting [4]) was found to be 2.3 nM; in assay [2] (setting [5]) it was 5.1 nM.

In the case of `C[C@@]1(c2cc(NC(=O)c3ccc(Cl)cn3)cc(Cl)c2F)C[C@@H](C(F)(F)F)OC(N)=N1` [Example 207, N-(3-((4S,6S)-2-amino-4-methyl-6-(trifluoromethyl)-5,6-dihydro-4H-1,3-oxazin-4-yl)-5-chloro-4-fluorophenyl)-5-chloropicolinamide], the IC50 in assay [1] (average) came to 11 nM; in assay [2] (HEK293, HEK cells, average), 20 nM.

In the case of `COc1cnc(C(=O)Nc2ccc(F)c([C@]3(CF)C[C@@H](C(F)(F)F)OC(N)=N3)c2)c(C)n1` [Example 33, N-(3-((4S,6S)-2-amino-4-(fluoromethyl)-6-(trifluoromethyl)-5,6-dihydro-4H-1,3-oxazin-4-yl)-4-fluorophenyl)-5-methoxy-3-methylpyrazine-2-carboxamide], the figures for the IC50 in assay [1] (average IC50) and in assay [2] (setting [3]) were 73.6 nM and 100 nM, respectively.

Source of the values: US9296734B2 (AMGEN INC., priority 2013, dated 2016).
